Measurements reported in patent US12240855B2, “Pyrrolopyrazole derivative” (DAIICHI SANKYO COMPANY, LIMITED, priority 2019, dated 2025).

Assays:
HCT116 cells = assay: cells; details: Homo sapiens, HCT-116, 72 h, read-out: Test Example 3 HCT116 GI50
[1] = test system: PTDSS2 gene-disrupted (PTDSS2-KO) HCT116 cells; assay: cells; details: Homo sapiens, HCT-116, 72 h, read-out: Test Example 3 PTDSS2-KO HCT116 GI50

In the case of `CC(F)(F)CN1C(=O)c2[nH]nc(-c3cccc4[nH]c(=O)oc34)c2C1c1cccc(Oc2ccc(F)cc2)c1` (single isomer, unassigned; (-)) [Example 53, (−)-7-{5-(2,2-Difluoropropyl)-4-[3-(4-fluorophenoxy)phenyl]-6-oxo-1,4,5,6-tetrahydropyrrolo[3,4-c]pyrazol-3-yl}-1,3-benzoxazol-2(3H)-one], the GI50 (HCT116 cells) was 13 µM and the GI50 [1] was 17 nM.

With `CC(F)(F)CN1C(=O)c2[nH]nc(-c3cccc4[nH]c(=O)oc34)c2C1c1ccc(Oc2ccc(Cl)cc2)cc1` (single isomer, unassigned; (-)) [Example 57, (−)-7-{4-[4-(4-Chlorophenoxy)phenyl]-5-(2,2-difluoropropyl)-6-oxo-1,4,5,6-tetrahydropyrrolo[3,4-c]pyrazol-3-yl}-1,3-benzoxazol-2(3H)-one] the GI50 (HCT116 cells) was 8.4 µM and the GI50 [1] was 55 nM.

Work on `CC(F)(F)CN1C(=O)c2[nH]nc(-c3cccc4[nH]c(=O)oc34)c2C1c1ccc(Oc2ccc(Cl)cc2)cc1F` (single isomer, unassigned; (-)) [Example 58, (−)-7-{4-[4-(4-Chlorophenoxy)-2-fluorophenyl]-5-(2,2-difluoropropyl)-6-oxo-1,4,5,6-tetrahydropyrrolo[3,4-c]pyrazol-3-yl}-1,3-benzoxazol-2(3H)-one] yielded a GI50 (HCT116 cells) of 8.8 µM and a GI50 [1] of 50 nM.

`O=C1c2[nH]nc(-c3cccc4[nH]c(=O)oc34)c2C(c2ccc(Oc3ccccc3)nc2)N1CC1CC1` (centres unmarked) [Example 4, 7-[5-(Cyclopropylmethyl)-6-oxo-4-(6-phenoxypyridin-3-yl)-1,4,5,6-tetrahydropyrrolo[3,4-c]pyrazol-3-yl]-1,3-benzoxazol-2(3H)-one] showed a GI50 (HCT116 cells) of 17 µM and a GI50 [1] of 3200 nM.

Compound `O=C1c2[nH]nc(-c3cccc4[nH]c(=O)oc34)c2C(c2ccc(-c3ccccc3F)cc2)N1CC1CC1` (centres unmarked) [Example 5, 7-[5-(Cyclopropylmethyl)-4-(2′-fluoro[1,1′-biphenyl]-4-yl)-6-oxo-1,4,5,6-tetrahydropyrrolo[3,4-c]pyrazol-3-yl]-1,3-benzoxazol-2(3H)-one] has a GI50 (HCT116 cells) of 12 µM and a GI50 [1] of 910 nM.

Work on `O=C1c2[nH]nc(-c3cccc4[nH]c(=O)oc34)c2C(c2cccc(OC3CCC3)c2)N1CC1CC1` (centres unmarked) [Example 6, 7-{4-[3-(Cyclobutyloxy)phenyl]-5-(cyclopropylmethyl)-6-oxo-1,4,5,6-tetrahydropyrrolo[3,4-c]pyrazol-3-yl}-1,3-benzoxazol-2(3H)-one] yielded a GI50 (HCT116 cells) of 24 µM and a GI50 [1] of 710 nM.

Work on `O=C1c2[nH]nc(-c3cccc4[nH]c(=O)oc34)c2C(c2cc(Oc3ccccc3)ccc2F)N1CC(F)(F)F` (centres unmarked) [Example 10, 7-[4-(2-Fluoro-5-phenoxy]phenyl)-6-oxo-5-(2,2,2-trifluoroethyl)-1,4,5,6-tetrahydropyrrolo[3,4-c]pyrazol-3-yl-1,3-benzoxazol-2(3H)-one] yielded a GI50 (HCT116 cells) of 20 µM and a GI50 [1] of 55 nM.

`CC(=O)Nc1cccc(-c2n[nH]c3c2C(c2cc(Oc4ccccc4)ccc2F)N(CC(F)(F)F)C3=O)c1` (centres unmarked) [Example 14, N-{3-[4-(2-Fluoro-5-phenoxy]phenyl)-6-oxo-5-(2,2,2-trifluoroethyl)-1,4,5,6-tetrahydropyrrolo[3,4-c]pyrazol-3-ylphenyl}acetamide] was tested, and the GI50 (HCT116 cells) was 9.8 µM and the GI50 [1] was 2900 nM.

`Cc1nc(C2c3c(-c4cccc5[nH]c(=O)oc45)n[nH]c3C(=O)N2CC(C)(F)F)nc(C)c1Cl` (centres unmarked) [Example 26, 7-[4-(5-Chloro-4,6-dimethylpyrimidine-2-yl)-5-(2,2-difluoropropyl)-6-oxo-1,4,5,6-tetrahydropyrrolo[3,4-c]pyrazol-3-yl]-1,3-benzoxazol-2(3H)-one] was tested, and the GI50 (HCT116 cells) was 22 µM and the GI50 [1] was 480 nM.

`CCCCc1cccc(C2c3c(-c4cccc5[nH]c(=O)oc45)n[nH]c3C(=O)N2CC(C)(F)F)c1` (centres unmarked) [Example 27, 7-[4-(3-Butylphenyl)-5-(2,2-difluoropropyl)-6-oxo-1,4,5,6-tetrahydropyrrolo[3,4-c]pyrazol-3-yl]-1,3-benzoxazol-2(3H)-one] showed a GI50 (HCT116 cells) of 14 µM and a GI50 [1] of 64 nM.

In the case of `CC(F)(F)CN1C(=O)c2[nH]nc(-c3cccc4[nH]c(=O)oc34)c2C1c1ccc(Cl)cc1Oc1ccccc1` (centres unmarked) [Example 28, 7-[4-(4-Chloro-2-phenoxyphenyl)-5-(2,2-difluoropropyl)-6-oxo-1,4,5,6-tetrahydropyrrolo[3,4-c]pyrazol-3-yl]-1,3-benzoxazol-2(3H)-one], the GI50 (HCT116 cells) was 11 µM and the GI50 [1] was 870 nM.

Work on `CC(F)(F)CN1C(=O)c2[nH]nc(-c3cccc4[nH]c(=O)oc34)c2C1c1ccc(OC2CCOCC2)cc1` (centres unmarked) [Example 29] yielded a GI50 (HCT116 cells) of 7.3 µM and a GI50 [1] of 1100 nM.

`CC(F)(F)CN1C(=O)c2[nH]nc(-c3cccc4[nH]c(=O)oc34)c2C1c1cnc(Oc2ccc(F)cc2)cn1` (centres unmarked) [Example 74, 7-{5-(2,2-Difluoropropyl)-4-[5-(4-fluorophenoxy)pyrazine-2-yl]-6-oxo-1,4,5,6-tetra hydropyrrolo[3,4-c]pyrazol-3-yl}-1,3-benzoxazol-2(3H)-one] showed a GI50 (HCT116 cells) of 7.7 µM and a GI50 [1] of 890 nM.

For `CC(F)(F)CN1C(=O)c2[nH]nc(-c3cccc4[nH]c(=O)oc34)c2C1c1ccc(Oc2ccc(Cl)cc2)nn1` (centres unmarked) [Example 75, 7-{4-[6-(4-Chlorophenoxy)pyridazine-3-yl]-5-(2,2-difluoropropyl)-6-oxo-1,4,5,6-tetrahydropyrrolo[3,4-c]pyrazol-3-yl}-1,3-benzoxazol-2(3H)-one], the GI50 (HCT116 cells) was 18 µM and the GI50 [1] was 3400 nM.

For `CC(F)(F)CN1C(=O)c2[nH]nc(-c3cccc4[nH]c(=O)oc34)c2C1c1cnc(Oc2ccc(Cl)c(Cl)c2)s1` (centres unmarked) [Example 76, 7-{4-[2-(3,4-Dichlorophenoxy)-1,3-thiazol-5-yl]-5-(2,2-difluoropropyl)-6-oxo-1,4,5,6-tetrahydropyrrolo[3,4-c]pyrazol-3-yl]-1,3-benzoxazol-2(3H)-one], the GI50 (HCT116 cells) was 7.8 µM and the GI50 [1] was 200 nM.

`CC(F)(F)CN1C(=O)c2[nH]nc(-c3cccc4[nH]c(=O)oc34)c2C1c1ccc(Oc2nc(C(F)(F)F)cs2)cc1` (centres unmarked) [Example 79, 7-[5-(2,2-Difluoropropyl)-6-oxo-4-(4-{[4-(trifluoromethyl)-1,3-thiazol-2-yl]oxy}phenyl)-1,4,5,6-tetrahydropyrrolo[3,4-c]pyrazol-3-yl]-1,3-benzoxazol-2(3H)-one] showed a GI50 (HCT116 cells) of 13 µM and a GI50 [1] of 220 nM.

`CC(F)(F)CN1C(=O)c2[nH]nc(-c3cccc4[nH]c(=O)oc34)c2C1c1ccc(Oc2cc(C(F)(F)F)cc(Cl)n2)cc1` (centres unmarked) [Example 80, 7-[4-(4-{[6-Chloro-4-(trifluoromethyl)pyridin-2-yl]oxy}phenyl)-5-(2,2-difluoropropyl)-6-oxo-1,4,5,6-tetrahydropyrrolo[3,4-c]pyrazol-3-yl]-1,3-benzoxazol-2(3H)-one] was tested, and the GI50 (HCT116 cells) was 8.3 µM and the GI50 [1] was 170 nM.

Work on `CC(F)(F)CN1C(=O)c2[nH]nc(-c3cccc4[nH]c(=O)oc34)c2C1c1cccc(Nc2ccccc2)c1` (centres unmarked) [Example 89, 7-[4-(3-Anilinophenyl)-5-(2,2-difluoropropyl)-6-oxo-1,4,5,6-tetrahydropyrrolo[3,4-c]pyrazol-3-yl]-1,3-benzoxazol-2(3H)-one] yielded a GI50 (HCT116 cells) of 17 µM and a GI50 [1] of 100 nM.

`CC(F)(F)CN1C(=O)c2[nH]nc(-c3cccc4[nH]c(=O)[nH]c34)c2C1c1ccc(Oc2ccc(Cl)cc2)cc1` (centres unmarked) [Example 94, 4-{4-[4-(4-Chlorophenoxy)phenyl]-5-(2,2-difluoropropyl)-6-oxo-1,4,5,6-tetrahydropyrrolo[3,4-c]pyrazol-3-yl}-1,3-dihydro-2H-benzimidazole-2-one] showed a GI50 (HCT116 cells) of 7.4 µM and a GI50 [1] of 3600 nM.
